Measured values: US11814447B2, “Peptide ligands for binding to EphA2” (BICYCLERD LIMITED, priority 2018, dated 2023)

By UniProt entry, the sequences of proteins in these tests, tags left out. Residues count along the entry.
UniProt P29317, 24-537 limits assumed: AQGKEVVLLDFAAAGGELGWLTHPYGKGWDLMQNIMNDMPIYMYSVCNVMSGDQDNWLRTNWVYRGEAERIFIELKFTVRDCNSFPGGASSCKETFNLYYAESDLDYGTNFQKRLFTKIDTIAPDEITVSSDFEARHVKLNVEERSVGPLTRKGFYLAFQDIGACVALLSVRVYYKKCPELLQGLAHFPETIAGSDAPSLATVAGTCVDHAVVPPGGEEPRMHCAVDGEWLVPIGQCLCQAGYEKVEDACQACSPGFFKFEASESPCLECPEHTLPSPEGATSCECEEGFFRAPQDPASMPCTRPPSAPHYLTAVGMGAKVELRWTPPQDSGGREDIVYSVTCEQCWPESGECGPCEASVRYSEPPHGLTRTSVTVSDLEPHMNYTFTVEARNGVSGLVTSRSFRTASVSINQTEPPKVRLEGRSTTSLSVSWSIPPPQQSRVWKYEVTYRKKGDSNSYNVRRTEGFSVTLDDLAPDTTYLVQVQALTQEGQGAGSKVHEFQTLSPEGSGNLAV

B1: Bicycle Compound Number 80 (TATA scaffold), RHDCPLVNPLCLLPGWTCA (peptide)
peptide: RHDCPLVNPLCLLPGWTCA
modifications: 3 Cys thioether-linked to TATA scaffold
B2: Bicycle Compound Number 83 (TATA scaffold), ACPLVNPLCLAPGWTCSRS (peptide)
peptide: ACPLVNPLCLAPGWTCSRS
modifications: 3 Cys thioether-linked to TATA scaffold
B3: Bicycle Compound Number 65 (TBMB scaffold) (peptide)
peptide: ACVPQGIWCALRYEPCA
modifications: 3 Cys thioether-linked to TBMB scaffold
notes: also called Compound 65
B4: Bicycle Compound Number 61 (TBMB scaffold) (peptide)
peptide: ANDVTCPWGPFWCPVNRPGCA
modifications: 3 Cys thioether-linked to TBMB scaffold
notes: also called Compound 61
B5: Bicycle Compound Number 28 (TBMB scaffold) (peptide)
peptide: ACMNDWLCQLGWKCA
modifications: 3 Cys thioether-linked to TBMB scaffold
notes: also called Compound 28
B6: Bicycle Compound Number 29 (TBMB scaffold) (peptide)
peptide: ACMNDWLCELGWTCA
modifications: 3 Cys thioether-linked to TBMB scaffold
notes: also called Compound 29
B7: Bicycle Compound Number 31 (TBMB scaffold) (peptide)
peptide: ACTQNDWLCSLGWTCA
modifications: 3 Cys thioether-linked to TBMB scaffold
notes: also called Compound 31
B8: Bicycle Compound Number 35 (TBMB scaffold) (peptide)
peptide: ACRVSPEYCPFGPTWCA
modifications: 3 Cys thioether-linked to TBMB scaffold
notes: also called Compound 35
B9: Bicycle Compound Number 39 (TBMB scaffold) (peptide)
peptide: ACRVSPEYCPFGPLWCA
modifications: 3 Cys thioether-linked to TBMB scaffold
notes: also called Compound 39
B10: Bicycle Compound Number 40 (TBMB scaffold) (peptide)
peptide: ACRVSPEYCPFGPDWCA
modifications: 3 Cys thioether-linked to TBMB scaffold
notes: also called Compound 40
B11: Bicycle Compound Number 43 (TBMB scaffold) (peptide)
peptide: ACPWGPAWCPVNGARCA
modifications: 3 Cys thioether-linked to TBMB scaffold
notes: also called Compound 43
B12: Bicycle Compound Number 44 (TBMB scaffold) (peptide)
peptide: ACPWGPAWCPVNRPGCA
modifications: 3 Cys thioether-linked to TBMB scaffold
notes: also called Compound 44
B13: Bicycle Compound Number 47 (TBMB scaffold) (peptide)
peptide: ACPWGPNWCPVNRPGCA
modifications: 3 Cys thioether-linked to TBMB scaffold
notes: also called Compound 47
B14: Bicycle Compound Number 48 (TBMB scaffold) (peptide)
peptide: ACPWGPAWCPVRNPCA
modifications: 3 Cys thioether-linked to TBMB scaffold
notes: also called Compound 48
B15: Bicycle Compound Number 49 (TBMB scaffold) (peptide)
peptide: ACPWGPAWCPVSRVCA
modifications: 3 Cys thioether-linked to TBMB scaffold
notes: also called Compound 49
B16: Bicycle Compound Number 50 (TBMB scaffold) (peptide)
peptide: ACPWGPAWCPVRSCA
modifications: 3 Cys thioether-linked to TBMB scaffold
notes: also called Compound 50
B17: Bicycle Compound Number 51 (TBMB scaffold) (peptide)
peptide: ACPWGPAWCPVKPTCA
modifications: 3 Cys thioether-linked to TBMB scaffold
notes: also called Compound 51
B18: Bicycle Compound Number 56 (TBMB scaffold) (peptide)
peptide: ADHACPWGPFWCPVNRPGCA
modifications: 3 Cys thioether-linked to TBMB scaffold
notes: also called Compound 56

Target: Human EphA2 (Homo sapiens, UniProt P29317)
Test: biochemical

With CC[C@H](C)[C@@H]1NC(=O)[C@H](Cc2c[nH]c3ccccc23)NC(=O)CNC(=O)[C@@H]2CCCN2C(=O)[C@H]([C@@H](C)O)NC(=O)[C@H](CC(C)C)NC(=O)[C@@H]2CSCCC(=O)N3CN(CN(C3)C(=O)CCSC[C@H](NC(=O)[C@H](C)N)C(=O)N3CCC[C@H]3C(=O)N[C@@H](CCSC)C(=O)N[C@@H](C(C)C)C(=O)N[C@@H](CC(N)=O)C(=O)N3CCC[C@H]3C(=O)N[C@@H](CC(C)C)C(=O)N2)C(=O)CCSC[C@@H](C(=O)N[C@@H](C)C(N)=O)NC1=O [96 (B series)] the Ki was 16.1 ± 4.58 nM.

Target: T1, Human EphA2 (Ecto) (Human, UniProt P29317 24-537)
T1 construct: extracellular domain; in-house)
Test: FP competition; tracer Reference Compound C

In order of rising Ki:
1. B2  7.05 nM
2. B1  7.11 nM

Target: T2, Human EphA2 (Ecto), C-terminal polyHis (Human, UniProt P29317 24-537)
T2 construct: extracellular domain; also called EPH receptor A2; ephrin type-A receptor 2
Test: fluorescence polarisation competition; competitor fluorescent Compound 12

B3 gave a Ki of 229 nM.

Target: T2, Human EphA2 (Ecto), C-terminal polyHis
Test: fluorescence polarisation competition; competitor fluorescent Compound 18

Work on B4 yielded a Ki of 2.93 nM.

Target: T2, Human EphA2 (Ecto), C-terminal polyHis
Test: fluorescence polarisation competition; competitor fluorescent Compound 66

In order of falling Ki:
1. B11  430 nM
2. B15  428 nM
3. B17  318 nM
4. B16  314 nM
5. B14  284 nM
6. B12  191 nM
7. B7  152 nM
8. B6  134 nM
9. B5  113 nM
10. B13  78.3 nM
11. B10  55.4 nM
12. B8  43.2 nM
13. B9  32.1 nM
14. B4  7.3 nM
15. B18  5.87 nM
